## Yeast mating assay 2: variants of the scFv Ab-95

Reference: Engelhart et al. 2022, doi:10.1038/s41597-022-01779-4. File: FLAb, binding data.

Binding partner: SARS-CoV-2 spike HR2 peptide, sequence PDVDLGDISGINAS.

Parent: Ab-95, a human scFv built as VH, a 15-residue (Gly4Ser)3 linker, VL. Only the CDRs of the light chain vary.
VH: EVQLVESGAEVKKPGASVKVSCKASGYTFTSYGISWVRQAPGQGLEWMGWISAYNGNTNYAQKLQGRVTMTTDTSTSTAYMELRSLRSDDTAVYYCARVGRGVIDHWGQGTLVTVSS
VL: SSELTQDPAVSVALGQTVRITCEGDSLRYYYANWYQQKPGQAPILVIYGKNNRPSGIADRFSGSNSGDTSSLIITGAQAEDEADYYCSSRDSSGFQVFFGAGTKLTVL

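The starting antibody came from a phage panning campaign against this peptide. The library (AAYL52) carries one to three amino acid substitutions per variant, with no insertions or deletions. Affinity was read by AlphaSeq, a pooled yeast mating assay with surface-displayed partners. Mating (16 h, 30 °C) was followed by selection of diploids and sequencing of their barcodes. Scores were corrected for input abundance and mapped to Kd with protein pairs of known affinity run in the same pool. Mating was done three times.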

Positions count from residue 1 of the parent VL; S89E puts E in place of S.
Every variant below is changed at S89 of the VL (sequential numbering).
Each Kd is an estimate from the mating assay, the geometric mean of the replicates in which the pair was seen; lower is stronger.
A pair that was not seen in any replicate is written "no signal"; this usually means weak binding, but a binder can also be missed.

changes	apparent Kd	seen in
S89E D91G S92I	220 nM	3/3
N51V S89F V97H	36 µM	2/3
G49H N51E S89M	no signal	0/3
N52Q S89V S92G	1.3 µM	3/3
G24E S89Y R90Q	5.9 µM	1/3
N51M S89D R90S	1.7 µM	3/3
R53T S89Q Q96I	120 µM	2/3
G24P K50R S89E	no signal	0/3
Y29V S55L S89N	24 µM	2/3
G24V S89K G94W	no signal	0/3
S26A S55D S89I	1.4 µM	3/3
K50E S89E	32 nM	3/3
R28H Y29H S89K	230 nM	3/3
R28D N33S S89A	140 nM	3/3
N52Y S89C F95E	320 nM	3/3
Y30R N33E S89I	6.1 µM	2/3
G24K S89R R90Y	no signal	0/3
S89A G94V F98I	750 nM	3/3
G24L S89W	4.4 µM	3/3
Y30N K50T S89K	440 nM	3/3
S26V S55V S89G	530 nM	3/3
S89R G94S F95P	300 nM	3/3
Y29E S89M F95C	2.2 µM	3/3
S89F Q96W F98D	2.5 µM	3/3
R28F G49T S89E	no signal	0/3
Y31I S89N	no signal	0/3
N51H S89I F95S	no signal	0/3
A32T N52I S89L	580 nM	3/3
Y29W S89D V97F	670 nM	3/3
G24M P54T S89F	2.5 µM	1/3
G49D S89I G94N	no signal	0/3
S26F L27Q S89W	38 µM	1/3
N33C N51P S89E	4.9 µM	2/3
Y29D Y30W S89T	760 nM	3/3
R53N S89T F98T	no signal	0/3
Y31C S89W V97G	120 nM	3/3
Y30N S89I F95N	10 nM	3/3
A32G S89E V97G	no signal	0/3
A32G S89V D91M	8.0 µM	2/3
Y30D S88C S89Y	91 µM	1/3
Y31K S89Y F95Y	1.1 µM	3/3
S26V S89V	2.8 µM	3/3
S89P S92K F98H	no signal	0/3
G49V S89V F98Y	32 µM	3/3
Y30E S89N G94V	61 nM	3/3
S26F S89F G94V	57 µM	2/3
N51M P54G S89G	310 µM	1/3
S88I S89Q V97Y	210 nM	3/3
R28Q A32G S89C	1.9 µM	3/3
R28I S88I S89H	1.5 µM	1/3
L27W Y29A S89P	34 µM	1/3
Y31I K50F S89E	12 µM	3/3
Y31K S89K	1.4 µM	3/3
G49C N51I S89G	7.7 µM	2/3
S88K S89E R90L	410 nM	3/3
N33Q R53W S89Y	1.7 µM	2/3
N52H S89V S92V	3.1 µM	2/3
K50D N51T S89A	96 nM	3/3
G24A Y29L S89D	31 µM	3/3
S89Q D91L Q96K	no signal	0/3
N33Y S89R Q96W	23 µM	1/3
N33C S89Q G94E	160 µM	2/3
P54F S55E S89I	1.8 µM	3/3
Y30E S89G S93E	24 nM	3/3
D25M S89G F98K	no signal	0/3
G24N S89N	250 nM	3/3
R28F S55M S89R	1.6 µM	3/3
K50W P54Y S89Y	3.4 µM	1/3
E23Q N52L S89C	93 nM	3/3
E23F S89T F95E	810 nM	1/3
L27E N33S S89T	8.6 µM	3/3
S89A R90I S92H	3.6 µM	3/3
Y31S G49C S89K	11 µM	1/3
Y31W S89R G94P	2.7 µM	3/3
Y31G S55L S89H	70 nM	3/3
P54C S89P	1.6 µM	3/3
R28T S55D S89G	72 nM	3/3
P54G S89P	370 nM	3/3
A32K N51Y S89G	46 µM	2/3

The opening 8 entries, copied out:

| changes | apparent Kd | seen in |
|---|---|---|
| S89E D91G S92I | 220 nM | 3/3 |
| N51V S89F V97H | 36 µM | 2/3 |
| G49H N51E S89M | no signal | 0/3 |
| N52Q S89V S92G | 1.3 µM | 3/3 |
| G24E S89Y R90Q | 5.9 µM | 1/3 |
| N51M S89D R90S | 1.7 µM | 3/3 |
| R53T S89Q Q96I | 120 µM | 2/3 |
| G24P K50R S89E | no signal | 0/3 |

Three control strains display no target. For library AAYL52, 28% of the pairings with them gave a signal, with a median of 8.2 µM and one signal in twenty below 800 nM, so weak values seen in few replicates may be background.